The target in this test is Human immunodeficiency virus type 1 reverse transcriptase (Human immunodeficiency virus 1, UniProt Q72547). Put plainly: Inhibition of HIV1 reverse transcriptase assessed as inhibition of biotin-dUTP incorporation.

Regarding `Cc1cc(C#N)cc(C)c1Oc1nc(Nc2ccc(C#N)cc2)nc(N)c1Br` [ETRAVIRINE], the IC50 was determined as 695 nM.
